The values that follow come from patent US10294227B2, “Compounds” (UNIVERSITY COURT OF THE UNIVERSITY OF EDINBURGH, priority 2015, dated 2019).

One series addresses SRC (Homo sapiens (Human), UniProt P12931). Briefly: Kinase screening assay (IC50).
In another series the test system is MCF7 cells. Briefly: Cell viability assay (PrestoBlue). Conditions: Homo sapiens, MCF7, 120 h, read-out: Antiproliferative activity (EC50) MCF7.
For a further series, the system named is MDA-MB-231 cells. The series is described as follows: Cell viability assay (PrestoBlue). Conditions: Homo sapiens.
Another series relates to NCI-H358. The series is described as follows: cells. Conditions: Homo sapiens, NCI-H358, 120 h, read-out: Antiproliferative activity (EC50) NCI-H358.
Series [1] concerns SYF fibroblasts (deficient for Src, Yes, and Fyn). Briefly: Cell viability assay (PrestoBlue). Conditions: Mus musculus, Fibroblast.
The subject of another series is MEF. The series is described as follows: cells. Conditions: Mus musculus, 120 h, read-out: Antiproliferative activity (EC50) MEF.
The subject of series [2] is active (phosphorylated) SRC in HCT116 cells. Conditions: western blot. In general terms: Immunoblotting shows a protein as a band on a membrane.
The nature of a further series: In vivo PK (iv and po). Conditions: female mice, blood and plasma levels studied for 8 hours.
A further series has as its system HT1080. The series is described as follows: cells. Conditions: Homo sapiens, HT-1080, 120 h, read-out: Antiproliferative activity (EC50) HT1080.
In a further series the test system is cancer cell viability. Conditions: 10 μM of GNF-2.
For a further series, the system named is zebrafish embryos. Conditions: treatment for 2 d.
The subject of series [3] is phospho-SRC, phospho-FAK, pAKT in MDA-MB-231 cells. Conditions: Western blot.
The subject of another series is BT549. Briefly: cells. Conditions: Homo sapiens, BT-549, 120 h, read-out: Antiproliferative activity (EC50) BT549.
In series [4] the test system is zebrafish tail fin regeneration. Conditions: 100 μM.
A further series concerns PC3. The series is described as follows: cells. Conditions: Homo sapiens, PC-3, 120 h, read-out: Antiproliferative activity (EC50) PC3.
[5] abbreviates: MDA-MB-231, 120 h, read-out: Antiproliferative activity (EC50) MDA-MB-231.
The mark [6] stands for this setting: 120 h, read-out: Antiproliferative activity (EC50) SYF (−/− Src).
[7] abbreviates: read-out: Kinase Screening (IC50) SRC, Src Family.
Setting [8] is: read-out: Target inhibition (IC50) SRC, 10 μM ATP.
Setting [9] is: read-out: Cell Screening (EC50) SYF cells (lack of Src).

Structures are written as SMILES. “Also recorded” adds a separate entry of the source. Like-named read-outs stand apart in the source and are kept apart here.

The term IC50 denotes the concentration that gives 50% inhibition.

The compound `Cc1ccc(-c2nn(CCN3CCN(C)CC3)c3ncnc(N)c23)cc1` [Compound 103] displayed an IC50 at SRC of 100 to 1000 nM. Besides, the EC50 with MCF7 cells is over 10000 nM.
With `Cc1ccc(-c2nn(CCN3CCN(CCN(C)C)CC3)c3ncnc(N)c23)cc1` [Compound 105, 1-[2-[4-(2-dimethylaminoethyl)piperazin-1-yl]ethyl]-3-(p-tolyl)pyrazolo[3,4-d]pyrimidin-4-amine], on SRC, the IC50 lay in the range of 100 to 1000 nM. Also, in the series with MCF7 cells, the EC50 was over 10000 nM.
As to `CN(C)CC1CCN(CCn2nc(-c3cnc4[nH]ccc4c3)c3c(N)ncnc32)CC1` [Compound 221, 1-[2-[4-(dimethylaminomethyl)-1-piperidyl]ethyl]-3-(1H-pyrrolo[2,3-b]pyridin-5-yl)pyrazolo[3,4-d]pyrimidin-4-amine], the EC50 with MDA-MB-231 cells (setting [5]) fell in the range of 1000 to 10000 nM.
`CN(C)C1CCN(CCn2nc(-c3cnc4[nH]ccc4c3)c3c(N)ncnc32)CC1` [Compound 402, 1-[2-[4-(dimethylamino)-1-piperidyl]ethyl]-3-(1H-pyrrolo[2,3-b]pyridin-5-yl)pyrazolo[3,4-d]pyrimidin-4-amine]: in the series on MCF7 cells, the EC50 was in the range of 1000 to 10000 nM.
For the compound `COc1cc(-c2nn(CCN3CCC(CN(C)C)CC3)c3ncnc(N)c23)ccc1NC(=O)OC(C)(C)C` [Compound 503, tert-butyl N-[4-[4-amino-1-[2-[4-(dimethylaminomethyl)-1-piperidyl]ethyl]pyrazolo[3,4-d]pyrimidin-3-yl]-2-methoxy-phenyl]carbamate], the EC50 was 100 to 1000 nM in the series on MCF7 cells, 100 to 1000 nM in the series on NCI-H358, over 10000 nM in [1] (setting [6]) and 1000 to 10000 nM with MEF.
On to `COc1cc(-c2nn(CCN3CCC(N(C)C)CC3)c3ncnc(N)c23)ccc1NC(=O)OC(C)(C)C` [Compound 506, tert-butyl N-[4-[4-amino-1-[2-[4-(dimethylamino)-1-piperidyl]ethyl]pyrazolo[3,4-d]pyrimidin-3-yl]-2-methoxy-phenyl]carbamate], for which the “inhibition of active (phosphorylated) SRC in HCT116 cells” value in [2] was “inhibition under 506 treatment was verified by western blot”. Further, the IC50 at SRC was under 0.5 nM; on SRC (setting [7]), under 10 nM; on SRC (setting [8]), under 10 nM. Further, on SRC, the “potency (IC50) against Src, in words” value was “sub-nano molar; also recorded: sub-nanoM”. Moreover, on SRC (read-out: enzymatic activity of c-Src (% of activity)), the activity at 1 µM was 0 to 0.5%. The “toxic effects in PK study” value in “In vivo PK (iv and po)” was “no toxic effects”. The EC50 in the series on HT1080 is over 10000 nM; in the series on MCF7 cells, under 100 nM; with NCI-H358, under 100 nM; in the series with BT549, over 10000 nM; in [1] (setting [6]), over 10000 nM; in [1] (setting [9]), 21400 nM. Further, the EC50 with PC3 was 1000 to 10000 nM; in the series with MEF, over 10000 nM. The “increment of EC50 values of compound 506 by GNF-2” value in the series on cancer cell viability was “up to 50 fold”. Moreover, the “effect on the development of the embryos” value in the series on zebrafish embryos is “minimal effect on the development of the embryos”. The “SRC auto-phosphorylation (Y416 phospho-SRC)” value in [3] was “strong inhibition”. The “SRC-mediated phosphorylation of FAK (phospho-FAK)” value in series [3] was “strong inhibition”. The “other phenotypic or toxic effect on the embryo” value in [4] was “did not show any other phenotypic or toxic effect on the embryo”.
For the compound `COc1cc(-c2nn(CCN3CCC(N4CCCC4)CC3)c3ncnc(N)c23)ccc1NC(=O)OC(C)(C)C` [Compound 518, tert-butyl N-[4-[4-amino-1-[2-(4-pyrrolidin-1-yl-1-piperidyl)ethyl]pyrazolo[3,4-d]pyrimidin-3-yl]-2-methoxy-phenyl]carbamate], the IC50 on SRC (setting [7]) and at SRC (setting [8]) was under 10 nM in each case. Further, the EC50 with MCF7 cells is under 100 nM; in [1] (setting [6]), over 10000 nM; in series [1] (setting [9]) it was 15100 nM.
`COc1cc(-c2nn(CCN3CCC(N4CCCCC4)CC3)c3ncnc(N)c23)ccc1NC(=O)OC(C)(C)C` [Compound 519, tert-butyl N-[4-[4-amino-1-[2-[4-(1-piperidyl)-1-piperidyl]ethyl]pyrazolo[3,4-d]pyrimidin-3-yl]-2-methoxy-phenyl]carbamate]: the EC50 in the series with MCF7 cells is 100 to 1000 nM; in series [1] (setting [6]), 1000 to 10000 nM; in [1] (setting [9]), 8500 nM.
As to `COc1cc(-c2nn(CCN3CCC(N(C)C)CC3)c3ncnc(N)c23)ccc1NC(=O)CC(C)(C)C` [Compound 526, N-[4-[4-amino-1-[2-[4-(dimethylamino)-1-piperidyl]ethyl]pyrazolo[3,4-d]pyrimidin-3-yl]-2-methoxy-phenyl]-3,3-demethyl-butanamide], the EC50 in [1] (setting [6]) is over 10000 nM.
For the compound `COc1cc(-c2nn(CCN3CCC(N(C)C)CC3)c3ncnc(N)c23)ccc1NCc1ccccc1` [Compound 533, 3-[4-(benzylamino)-3-methoxy-phenyl]-1-[2-[4-(dimethylamino)-1-piperidyl]ethyl]pyrazolo[3,4-d]pyrimidin-4-amine], the EC50 was 100 to 1000 nM in the series on MCF7 cells, 1000 to 10000 nM in series [1] (setting [6]) and 7040 nM in series [1] (setting [9]).
Take `COc1cc(-c2nn(CCN3CCC(N(C)C)CC3)c3ncnc(N)c23)ccc1NC(=O)NC(C)(C)C` [Compound 540, 1-[4-[4-amino-1-[2-[4-(dimethylamino)-1-piperidyl]ethyl]pyrazolo[3,4-d]pyrimidin-3-yl]-2-methoxy-phenyl]-3-tert-butyl-urea]: the EC50 (in the series with MCF7 cells; in series [1] (setting [6])) was over 10000 nM each time.
Take `CN(C)C1CCN(CCn2nc(-c3ccc(NC(=O)OC(C)(C)C)cc3)c3c(N)ncnc32)CC1` [Compound 543]: the EC50 with MCF7 cells was 1000 to 10000 nM.
As to `CN(C)C1CCN(CCn2nc(-c3ccc(CC(=O)OC(C)(C)C)cc3)c3c(N)ncnc32)CC1` [Compound 553, tert-butyl 2-[4-[4-amino-1-[2-[4-(dimethylamino)-1-piperidyl]ethyl]pyrazolo[3,4-d]pyrimidin-3-yl]phenyl]acetate], the EC50 was 1000 to 10000 nM in the series with MCF7 cells, over 10000 nM in series [1] (setting [6]) and 15400 nM in [1] (setting [9]).
Consider `COc1cc(-c2nn(CCN3CCC(N(C)C)CC3)c3ncnc(N)c23)ccc1CC(=O)OC(C)(C)C` [Compound 565, tert-butyl 2-[4-[4-amino-1-[2-[4-(dimethylamino)-1-piperidyl]ethyl]pyrazolo[3,4-d]pyrimidin-3-yl]-2-methoxy-phenyl]acetate], for which the EC50 in the series on MCF7 cells is 100 to 1000 nM; in series [1] (setting [6]), over 10000 nM; in [1] (setting [9]), 15600 nM.
For `COc1cc(-c2nn(CCN3CCC(N(C)C)CC3)c3ncnc(N)c23)ccc1Cc1ncc(C)o1` [Compound 584, 1-[2-[4-(dimethylamino)-1-piperidyl]ethyl]-3-[3-methoxy-4-[(5-methyloxazol-2-yl)methyl]phenyl]pyrazolo[3,4-d]pyrimidin-4-amine], the EC50 with MDA-MB-231 cells (setting [5]) was 100 to 1000 nM.
As for `Cc1nc(Nc2ncc(C(=O)Nc3c(C)cccc3Cl)s2)cc(N2CCN(CCO)CC2)n1` [Dasatinib, reference compound], the EC50 in the series with HT1080 is over 10000 nM; in the series on MCF7 cells, under 100 nM; in the series with NCI-H358, 1000 to 10000 nM; with BT549, over 10000 nM; in series [1] (setting [6]), 1000 to 10000 nM; in series [1] (setting [9]) it was 1540 nM. Also, the EC50 with MDA-MB-231 cells (setting [5]) was under 100 nM; with MDA-MB-231 cells (MDA-MB-231, read-out: Cell Screening (EC50) MDA-MB-231) it was 13 nM; with PC3 it was 1000 to 10000 nM; in the series on MEF, 1000 to 10000 nM.
